Chains of the proteins cited; added tags and fusions are not shown. Lines headed by an entry give the natural chain unless they say otherwise; changes in a name come on top.
UniProt Q9QUQ5: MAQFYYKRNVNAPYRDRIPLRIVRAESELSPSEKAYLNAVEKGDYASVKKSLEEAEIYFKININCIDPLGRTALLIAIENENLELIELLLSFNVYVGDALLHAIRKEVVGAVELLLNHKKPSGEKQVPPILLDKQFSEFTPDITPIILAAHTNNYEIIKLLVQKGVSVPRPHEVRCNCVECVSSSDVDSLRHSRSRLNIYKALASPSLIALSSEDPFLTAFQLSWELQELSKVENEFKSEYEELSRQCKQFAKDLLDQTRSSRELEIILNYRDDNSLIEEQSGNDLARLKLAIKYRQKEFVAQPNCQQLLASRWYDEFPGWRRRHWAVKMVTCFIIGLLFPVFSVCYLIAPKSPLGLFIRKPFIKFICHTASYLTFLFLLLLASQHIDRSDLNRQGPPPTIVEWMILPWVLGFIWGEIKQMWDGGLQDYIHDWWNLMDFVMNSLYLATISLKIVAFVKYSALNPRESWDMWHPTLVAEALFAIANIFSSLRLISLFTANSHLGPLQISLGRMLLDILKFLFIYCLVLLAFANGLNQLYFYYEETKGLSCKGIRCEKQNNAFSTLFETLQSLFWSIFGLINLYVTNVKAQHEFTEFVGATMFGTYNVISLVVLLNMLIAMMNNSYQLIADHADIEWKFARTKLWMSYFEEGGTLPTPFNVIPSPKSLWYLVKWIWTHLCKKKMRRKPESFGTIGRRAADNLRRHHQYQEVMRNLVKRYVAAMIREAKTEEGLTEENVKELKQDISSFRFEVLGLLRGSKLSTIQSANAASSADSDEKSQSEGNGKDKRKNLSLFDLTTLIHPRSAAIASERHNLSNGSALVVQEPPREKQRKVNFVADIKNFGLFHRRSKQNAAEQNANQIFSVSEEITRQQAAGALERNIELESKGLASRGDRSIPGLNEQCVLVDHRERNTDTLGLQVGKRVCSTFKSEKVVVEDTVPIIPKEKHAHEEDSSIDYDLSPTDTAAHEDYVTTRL

The list shows a part of the results, in another mix than the full data. Activity calls are given as the source filed them.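 The calls were made as follows: active = calcium signal rise above buffer-control mean plus 5 SD in both duplicates, and also a hit in the primary screen; inactive = the rest.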
Each compound was assayed against Short transient receptor potential channel 4 (Mus musculus) (UniProt Q9QUQ5) (assay: calcium flux activators in TRPC4/5HT1a cells, counter-screen for TRPC4 activator project, cell-based, second counter screen, HEK293 TRPC4/5HT1a, Fluo-4 (AID 434977;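 also: plate controls were assay buffer for no effect and maximal serotonin response for full effect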)). Conditions: Fluo-4 calcium flux, at 10 µM, active compounds read high.
For CN(C)C1(CNC(=O)c2ccc(Cl)c(S(N)(=O)=O)c2)CCCCC1, the activation was inactive: 0%.

— PubChem BioAssay AID434977 (Johns Hopkins Ion Channel Center, 2010)
